From PubChem BioAssay AID2098 (Broad Institute, 2009)
Only a part is listed here, and it is no random draw. Calls of active or inactive are those of the source.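 Rule for the calls: active = more than half of replicate wells show activity change below -50%, luminescence cut by over half; inconclusive = some wells, but at most half, below -50%; inactive = no replicate well below -50%.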

assay: blocking HSF1-driven luciferase expression – cell-based, NIH3T3, luminescence, primary screen (AID 2098); details: NIH3T3-HGL HSE-luciferase, MG132-induced, luminescence 8 h; hits give low values; screened at 7.5 µM (by protocol);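 note: luciferase reports HSF-1 transcriptional activity via heat shock element; 0% = median of DMSO wells and -100% = zero luminescence signal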

SMILES | activity change, negative = inhibition
CCOC(=O)N1CCC(Nc2ccc(OC)cc2)CC1 | inactive: -3.25%
O=C(OC1CN2CCC1CC2)C1c2ccccc2Oc2ccccc21 (centres undefined) | inactive: 10.7%
N#CC1(Nc2ccccc2)CCN(Cc2ccccc2)CC1 | inactive: -10.2%
O=C(NCC1(N2CCOCC2)CCCCC1)c1cc2ccccc2o1 | inactive: 3.41%
Cc1cc(C)cc(N(C(=O)c2ccccc2)C2CCN(C(=O)OC(C)(C)C)CC2)c1 | inactive: 0.91%
O=C(NCC1(N2CCCCC2)CCCCC1)c1ccc(Cl)nc1 | inactive: -4.6%
CSc1ccccc1C(=O)NCC1(N2CCCCC2)CCCCC1 | inactive: -6.51%
O=C(NCC1(N2CCCCC2)CCCCC1)c1cccs1 | inactive: -1.47%
O=C(NCC1(N2CCCCC2)CCCCC1)c1ccc(=O)[nH]c1 | inactive: -6.85%
COc1ccc(C(=O)NCC2(N3CCCCC3)CCCCC2)c(OC)c1OC | inactive: -10.3%
CC(C)(C)OC(=O)N1CCC(N(C(=O)c2ccccc2)c2ccc(F)cc2)CC1 | inactive: -4.33%
COc1ccc(C(=O)NCC2(N3CCCCC3)CCCCC2)cc1 | inactive: -6.51%
Cc1ccc(OCC(C)C)c(CN(CCCl)CCCl)c1 | inactive: 3.82%
COc1cc(C(=O)NCC2(N(C)C)CCCCC2)ccc1OC(F)F | inactive: -9.84%
CCOC(=O)N1CCC(Nc2cccc(C)c2)CC1 | inactive: 9.45%
COc1ccc(NC2CCN(CCc3ccccc3)CC2)c(OC)c1 | inactive: -3.59%
CCOC(=O)N1CCC(Nc2ccc(F)cc2)CC1 | inactive: 10.7%
O=C(NCC1(N2CCCCC2)CCCCC1)c1ccc(F)cc1 | inactive: -3.4%
CCOc1ccc(C)cc1CN(CCCl)CCCl | inactive: 4.33%
CN1CCN(CCOC(=O)C(O)(c2ccccc2)c2ccccc2)CC1 | inactive: 3.36%

SMILES | activity change, negative = inhibition
COc1ccc(NC2CCN(C(=O)OC(C)(C)C)CC2)cc1 | inactive: 1.12%
COc1cc(C(=O)NCC2(N3CCCCC3)CCCCC2)ccc1OC(F)F | inactive: -2.57%
O=C(NCC1(N2CCOCC2)CCCCC1)c1cc(=O)[nH]c2ccccc12 | inactive: -3.38%
O=C(NCC1(N2CCCCC2)CCCCC1)c1cccc(C(F)(F)F)c1 | inactive: -1.87%
O=C(NCC1(N2CCCCC2)CCCCC1)c1cccc([N+](=O)[O-])c1 | inactive: 2.99%
N#CC1(Nc2ccccc2)CCN(CCc2ccccc2)CC1 | inactive: -1.64%
CCN1CCC(Nc2ccc(Cl)cc2)CC1 | inactive: -4.59%
O=C(NCC1(N2CCCCC2)CCCCC1)c1ccc(OC(F)F)cc1 | inactive: -3.6%
CCCOc1ccc(C(=O)NCC2(N(C)C)CCCCC2)cc1OC | inactive: -5.55%
CN1CCC(Nc2cccc(F)c2)CC1 | inactive: -2.42%
COc1cc(OC)c(C(=O)NCC2(N(C)C)CCCCC2)cc1OC | inactive: 4.67%
CN(C)c1cccc(C(=O)NCC2(N3CCCCC3)CCCCC2)c1 | inactive: -11.5%
COc1ccc(CN(CCCl)CCCl)cc1Cl | inactive: 4.48%
CC(C)c1ccc(NC2CCN(C(=O)OC(C)(C)C)CC2)cc1 | inactive: -1.65%
O=C(OC1CN2CCC1CC2)C1c2ccccc2C=Cc2ccccc21 (centres undefined) | inactive: -6.21%
CCc1cc(C(=O)NCC2(N3CCCCC3)CCCCC2)sc1C | inactive: -2.66%
N/C(=N\O)c1c(N)no[n+]1[O-] | inactive: -10.1%
CCOC(=O)N1CCC(Nc2ccc(C)cc2)CC1 | inactive: -1.32%
COc1ccc(C(=O)NCC2(N3CCOCC3)CCCCC2)cc1OC | inactive: -6.34%
CCCN1CCC(Nc2cc(OC)cc(OC)c2)CC1 | inactive: -7.12%

SMILES | activity change, negative = inhibition
c1ccc(CN2CCC(Nc3ccccc3)CC2)cc1 | inactive: -5.29%
CN(C)C1(CNC(=O)c2cccc(C#N)c2)CCCCC1 | inactive: -3.02%
CC(C)(C)OC(=O)N1CCC(N(C(=O)c2ccccc2)c2ccc(Cl)cc2)CC1 | inactive: -2.14%
N#Cc1ccc(C(=O)NCC2(N3CCCCC3)CCCCC2)cc1 | inactive: -5.55%
CN(C)c1ccc(C(=O)NCC2(N3CCCCC3)CCCCC2)cc1 | inactive: -3.38%
CCN1CCC(Nc2cccc(F)c2)CC1 | inactive: -1.72%
Fc1ccccc1NC1CCN(Cc2ccccc2)CC1 | inactive: -7.33%
Cc1ccc(C(=O)NCC2(N3CCCCC3)CCCCC2)o1 | inactive: -6.65%
COc1cc(OC)cc(C(=O)NCC2(N3CCCCC3)CCCCC2)c1 | inactive: 4.39%
CCCOc1ccc(C)cc1CN(CCCl)CCCl | inactive: 3.38%
CN1CCC(Nc2ccc(Cl)cc2)CC1 | inactive: -3.57%
CCC(CO)(C(=O)OC1CN2CCC1CC2)c1ccccc1 (centres undefined) | inactive: -2.89%
COc1cc(OC)cc(C(=O)NCC2(N3CCOCC3)CCCCC2)c1 | inactive: -3.22%
COc1cccc(C(=O)N(c2cc(C)cc(C)c2)C2CCN(C(=O)OC(C)(C)C)CC2)c1 | inactive: -0.224%
CCCOc1ccc(C(=O)NCC2(N(C)C)CCCCC2)cc1 | inactive: 7.68%
O=C(O)C1(Nc2ccccc2)CCN(Cc2ccccc2)CC1 | inactive: -8.58%
CC(C)(C)OC(=O)N1CCC(Nc2ccccc2)CC1 | inactive: -3.65%
CN1CCC(Nc2ccc(F)c(Cl)c2)CC1 | inactive: 0.707%
CCOc1ncccc1C(=O)NCC1(N2CCOCC2)CCCCC1 | inactive: -1.93%
